Assay results reported in patent US9573961B2, “Inhibitors of the renal outer medullary potassium channel” (Merck Sharp & Dohme Corp., priority 2012, dated 2017).

Amino acid sequences for entries named in this document (tags omitted). A change or cut given only in a name is not applied to a line headed by its entry.
UniProt P48048: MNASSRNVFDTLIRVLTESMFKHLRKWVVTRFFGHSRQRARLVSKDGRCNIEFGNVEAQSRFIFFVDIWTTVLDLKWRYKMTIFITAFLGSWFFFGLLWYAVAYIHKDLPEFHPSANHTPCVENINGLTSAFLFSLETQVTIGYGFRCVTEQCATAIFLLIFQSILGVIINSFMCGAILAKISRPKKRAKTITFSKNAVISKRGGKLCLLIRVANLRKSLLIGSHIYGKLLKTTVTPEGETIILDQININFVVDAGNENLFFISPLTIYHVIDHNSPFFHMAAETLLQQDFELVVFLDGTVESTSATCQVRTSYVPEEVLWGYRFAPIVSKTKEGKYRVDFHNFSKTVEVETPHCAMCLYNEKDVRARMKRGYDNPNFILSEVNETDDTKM

Target: hROMK (hKir1.1) (Homo sapiens (Human), UniProt P48048)
Test: Thallium Flux Assay (ROMK channel functional thallium flux, FLIPR-Tetra)
Type: cell-based
Conditions: HEK293 cells stably expressing hROMK (hKir1.1)
Experimental: Cell Culture Conditions—HEK293 cells stably expressing hROMK (hKir1.1) were grown at 37° C. in a 10% CO2 humidified incubator in complete growth media: Dulbecco's Modified Eagle Medium supplemented with non-essential amino acids, Penicillin/Streptomycin/Glutamine, G418 and FBS. At >80% confluency, aspirate the media from the flask and rinse with 10 mL Calcium/Magnesium-free PBS. […] To dislodge the cell, gently bang the side of the flask with your hand. Triturate the cells completely and then transfer the cells to 25 mL complete media. Centrifuge at 1,500 rpm for 6 min followed by resuspension in complete growth media and determine cell concentration. […] Under ideal growth conditions and appropriate tissue culture practices, this cell line is stable for 40-45 passages.
FluxOR Kit Components (Invitrogen F10017) • FluxOR™ Reagent (Component A) • FluxOR™ Assay Buffer (Component B)—10× Concentrate • PowerLoad™ Concentrate (Component C)—100× Concentrate • Probenecid (Component D)—Lyophilized sample is kept at −20° C. Water soluble, 100× after solubilization in 1 mL water. […]
Data Calculation—The fluorescence intensity of wells containing 3 μM of a standard control ROMK inhibitor of the present invention is used to define the ROMK-sensitive component of thallium flux. Fluorescence in the presence of test compounds is normalized to control values to provide % fluorescence change.

Structure (SMILES)	IC50 [nM]
C[C@@H]1Cc2cc([C@@H]3CN4CCN(C(=O)C5CCc6cc(-n7cnnn7)ccc65)C[C@H]4CO3)ccc2C(=O)O1 (single isomer, unassigned) [Example 84]	400
C[C@@H]1Cc2cc([C@@H]3CN4CCN(C(=O)C5CCc6cc(-n7cnnn7)ccc65)C[C@H]4CO3)ccc2C(=O)O1 (single isomer, unassigned) [Example 85]	150
